# Results from patent US6458347B1, “Drug complex” (Asahi Kasei Kabushiki Kaisha, priority 1996, dated 2002).
# Test: Dissolution in physiological saline
# Type: physicochemical
# Conditions: not given
row,Substance,dissolution ratio in terms of paclitaxel [mg/mL]
1,PEG-2′-Gly-paclitaxel [compound (5)],3.6
2,carboxymethylated dextran-7-Gly-Gly-Phe-Gly-paclitaxel [compound (35)],7.4
3,PEG-2′-Ile-paclitaxel [compound (17)],2.8
4,carboxymethylated dextran-2′-Gly-Gly-Phe-Gly-paclitaxel [compound (33)],3.7
5,carboxymethylated dextran-2′-Ile-paclitaxel [compound (15)],1.6
6,carboxymethylated dextran-2′-Gly-paclitaxel [compound (3)],3.7

# Test: not given
# Conditions: serum of B-16 melanoma-transplanted mouse, 37° C.
row,Substance,release of paclitaxel as compared to that from compound (33)
1,carboxymethylated dextran-7-Gly-Gly-Phe-Gly-paclitaxel [compound (35)],slow
